# Where a name gives a salt, the structure may show the parent alone.
# Details: human, in vivo, iv
# Experimental: A study was conducted in humans to assess the intravenous abuse potential of serdexmethylphenidate relative to unconjugated d-methylphenidate and placebo in recreational stimulant abusers. This was a Phase 1, randomized, double-blind study in which serdexmethylphenidate and d-methylphenidate were administered intravenously in recreational stimulant users with a history of non-oral abuse. In Part A of the study, subjects (Cohort 1) participated in a dose-escalation phase to determine the optimal dose of intravenous d-methylphenidate based on tolerability and abuse-related pharmacodynamic assessments. […] The doses of serdexmethylphenidate and d-methylphenidate are equivalent with respect to molar amount of d-methylphenidate. FDA-recommended abuse potential measures and blood samples were collected at different times after dosing. Safety assessments were performed throughout the study.
smiles,measurement,value
"COC(=O)[C@H](c1ccccc1)[C@H]1CCCCN1 [d-methylphenidate hydrochloride, d-threo-methylphenidate hydrochloride]","AUCinf, GLSM",237.6
same,"AUClast, GLSM",233.7
same,"Cmax, GLSM",58.3
same,T1/2,3.89 h
same,Tmax,0.375 h
